Experimental data taken from patent US20100104555A1.

Sequences of proteins named here, by UniProt entry; tags and fusion partners are left off. Residues count along the entry.
UniProt P26660, 192-750 limits assumed: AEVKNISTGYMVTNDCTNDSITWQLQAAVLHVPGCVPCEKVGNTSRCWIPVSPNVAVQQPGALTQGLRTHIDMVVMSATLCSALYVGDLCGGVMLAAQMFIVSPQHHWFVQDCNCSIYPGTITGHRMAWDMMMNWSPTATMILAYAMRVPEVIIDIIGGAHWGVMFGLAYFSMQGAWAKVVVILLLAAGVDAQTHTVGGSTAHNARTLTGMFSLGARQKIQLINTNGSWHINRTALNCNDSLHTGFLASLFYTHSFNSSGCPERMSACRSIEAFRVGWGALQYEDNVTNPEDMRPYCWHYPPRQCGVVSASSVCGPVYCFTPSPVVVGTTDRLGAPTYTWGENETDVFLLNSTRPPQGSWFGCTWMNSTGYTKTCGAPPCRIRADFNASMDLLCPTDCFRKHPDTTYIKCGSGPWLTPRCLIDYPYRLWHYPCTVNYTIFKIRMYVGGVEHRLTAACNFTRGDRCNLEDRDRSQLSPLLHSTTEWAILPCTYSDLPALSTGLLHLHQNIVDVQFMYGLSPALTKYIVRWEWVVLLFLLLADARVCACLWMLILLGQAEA

How the values were obtained:
Assay in all cases: cell-based or functional assay
[1] = target: E1E2 Env of HCV isolate J6 (genotype 2a) on HCVpp (hepatitis C virus genotype 2a, isolate J6) (UniProt P26660)
[2] = target: E1E2 Env of HCV isolate UKN2B1.1 (genotype 2b) on HCVpp (hepatitis C virus genotype 2b, isolate UKN2B1.1)
[3] = target: E1E2 Env of HCV isolate UKN4.21.16 (genotype 4) on HCVpp (hepatitis C virus genotype 4, isolate UKN4.21.16)
[4] = target: E1E2 Env of HCV isolate UKN1B12.16 (genotype 1b) on HCVpp (hepatitis C virus genotype 1b, isolate UKN1B12.16)
[5] = target: E1E2 Env of HCV isolate H (genotype 1a) on HCVpp (hepatitis C virus genotype 1a, isolate H)
[6] = target: E1E2 Env of HCV isolate OH8 (genotype 1b) on HCVpp (hepatitis C virus genotype 1b, isolate OH8)
[7] = target: VSV (control pseudotype virus)
[8] = target: E1E2 Env of HCV isolate UKN2A1.2 (genotype 2a) on HCVpp (hepatitis C virus genotype 2a, isolate UKN2A1.2)
[9] = target: E1E2 Env of HCV isolate UKN5.15.7 (genotype 5) on HCVpp (hepatitis C virus genotype 5, isolate UKN5.15.7)

**Q.** With MAb AR3A (antibody) as the substance, how does the Neutralizing activity (IC50), HCVpp [1] read?
**A.** 10 µg/mL

**Q.** And the Neutralizing activity (IC50), HCVpp [2]?
**A.** 10 µg/mL

**Q.** What about the Neutralizing activity (IC50), HCVpp [3] of the same substance?
**A.** 1 µg/mL

**Q.** And the Neutralizing activity (IC50), HCVpp [4]?
**A.** 1 µg/mL

**Q.** And the Neutralizing activity (IC50), HCVpp [5]?
**A.** 1 µg/mL

**Q.** And the Neutralizing activity (IC50), HCVpp [6]?
**A.** 5 µg/mL

**Q.** What about the Neutralizing activity (IC50), control pseudotype [7] of the same substance?
**A.** > 50 µg/mL

**Q.** What about the Neutralizing activity (IC50), HCVpp [8] of the same substance?
**A.** 10 µg/mL

**Q.** And the Neutralizing activity (IC50), HCVpp [9]?
**A.** 1 µg/mL
